Measurements published in patent publication US9458179B2, “Quinuclidine, 1-azabicyclo[2.2.1]heptane, 1-azabicyclo [3.2.1]octane, and 1-azabicyclo[3.2.2]nonane compounds as alpha-7 nicotinic acetylcholine receptor ligands” (BRISTOL-MYERS SQUIBB COMPANY, priority 2012, dated 2016).
Where two headings read alike, the source gives them in different places.

Protein sequences, listed by entry. Tags and fused reporters are not part of them. Residues count along the entry.
UniProt Q05941, 23-502 limits assumed: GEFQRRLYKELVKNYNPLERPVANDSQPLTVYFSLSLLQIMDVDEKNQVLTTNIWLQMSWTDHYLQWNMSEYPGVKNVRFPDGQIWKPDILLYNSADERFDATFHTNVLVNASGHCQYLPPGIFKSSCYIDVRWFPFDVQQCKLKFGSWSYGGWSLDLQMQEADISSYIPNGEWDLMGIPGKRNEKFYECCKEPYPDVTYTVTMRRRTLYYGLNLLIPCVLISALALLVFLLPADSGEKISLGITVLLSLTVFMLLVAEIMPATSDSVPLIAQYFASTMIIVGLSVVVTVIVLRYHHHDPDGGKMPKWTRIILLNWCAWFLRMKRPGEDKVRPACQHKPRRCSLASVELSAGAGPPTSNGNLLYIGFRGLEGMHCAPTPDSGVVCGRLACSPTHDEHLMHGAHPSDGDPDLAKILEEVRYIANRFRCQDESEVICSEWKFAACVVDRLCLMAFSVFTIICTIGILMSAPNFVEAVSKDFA

Biological target: α-7 nicotinic ACh receptor ion channel (Rattus norvegicus, UniProt Q05941)
Experiment: Ca2+-sensitive fluorescence-based FLIPR assay of α7 nicotinic receptor channel function (agonist activity)
Format: cell-based
Conditions: read-out: FLIPR α7-HI (EC50), HEK 293 cells, Ca2+ flux, tested form: TFA

Work on `COc1cc(NC2=NCC3(CN4CCC3CC4)N2)ncn1` (centres unmarked) yielded an EC50 (Table 1, activity class) of 100 to 1000 nM and an EC50 of 875 nM.
